The target of this test is T1, Rep helicase (E. coli), wild type (E. coli, UniProt P09980 1-673).
T1 chain: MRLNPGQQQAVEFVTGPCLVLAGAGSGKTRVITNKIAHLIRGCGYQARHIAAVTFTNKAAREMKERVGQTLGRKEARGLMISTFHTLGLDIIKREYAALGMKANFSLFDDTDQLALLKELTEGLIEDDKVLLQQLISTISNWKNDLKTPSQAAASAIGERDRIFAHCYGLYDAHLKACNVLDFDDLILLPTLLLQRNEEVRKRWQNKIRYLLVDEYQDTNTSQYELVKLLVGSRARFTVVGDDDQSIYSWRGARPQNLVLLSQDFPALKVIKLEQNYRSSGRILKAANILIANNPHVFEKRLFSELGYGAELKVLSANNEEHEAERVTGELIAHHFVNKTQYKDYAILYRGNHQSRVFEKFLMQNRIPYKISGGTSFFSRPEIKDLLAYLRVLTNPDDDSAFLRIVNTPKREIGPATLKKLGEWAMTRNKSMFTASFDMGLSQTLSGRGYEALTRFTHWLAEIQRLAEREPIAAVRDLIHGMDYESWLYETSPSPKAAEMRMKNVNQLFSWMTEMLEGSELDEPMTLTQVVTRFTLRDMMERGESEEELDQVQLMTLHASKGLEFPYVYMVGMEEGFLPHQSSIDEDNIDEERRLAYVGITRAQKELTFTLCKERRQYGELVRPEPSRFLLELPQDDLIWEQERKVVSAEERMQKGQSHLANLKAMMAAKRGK
The experiment in a line: SPR.

B1: E. coli replicative helicase DnaB, purified (enzyme)
chain: MAGNKPFNKQQAEPRERDPQVAGLKVPPHSIEAEQSVLGGLMLDNERWDDVAERVVADDFYTRPHRHIFTEMARLQESGSPIDLITLAESLERQGQLDSVGGFAYLAELSKNTPSAANISAYADIVRERAVVREMISVANEIAEAGFDPQGRTSEDLLDLAESRVFKIAESRANKDEGPKNIADVLDATVARIEQLFQQPHDGVTGVNTGYDDLNKKTAGLQPSDLIIVAARPSMGKTTFAMNLVENAAMLQDKPVLIFSLEMPSEQIMMRSLASLSRVDQTKIRTGQLDDEDWARISGTMGILLEKRNIYIDDSSGLTPTEVRSRARRIAREHGGIGLIMIDYLQLMRVPALSDNRTLEIAEISRSLKALAKELNVPVVALSQLNRSLEQRADKRPVNSDLRESGSIEQDADLIMFIYRDEVYHENSDLKGIAEIIIGKQRNGPIGTVRLTFNGQWSRFDNYAGPQYDDE
A word on the Kd: it is the free concentration of one partner at which half of the binding sites on the other are occupied at equilibrium, for simple one-to-one binding. Lower therefore signals tighter binding. Molecule B1 had a Kd of 93 nM.
